This passage reports Activity and inhibition results from ChEMBL document CHEMBL2417429, “Direct and nitroxyl (HNO)-mediated reactions of acyloxy nitroso compounds with the thiol-containing proteins glyceraldehyde 3-phosphate dehydrogenase and alkyl hydroperoxide reductase subunit C” (J Med Chem, 2013).

Chains of the proteins cited; added tags and fusions are not shown. Lines headed by an entry give the natural chain unless they say otherwise; changes in a name come on top.
UniProt P46406: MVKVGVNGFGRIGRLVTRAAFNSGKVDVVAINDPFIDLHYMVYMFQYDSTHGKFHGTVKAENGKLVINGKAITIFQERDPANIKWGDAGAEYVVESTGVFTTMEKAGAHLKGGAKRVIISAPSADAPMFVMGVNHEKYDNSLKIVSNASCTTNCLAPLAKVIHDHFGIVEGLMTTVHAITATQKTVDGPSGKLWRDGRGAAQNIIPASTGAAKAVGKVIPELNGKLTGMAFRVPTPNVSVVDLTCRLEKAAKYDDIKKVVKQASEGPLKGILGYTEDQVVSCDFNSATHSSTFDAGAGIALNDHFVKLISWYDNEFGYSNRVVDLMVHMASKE

Each structure is given as a SMILES string. Structures can show the parent of a compound that is named as a salt. Activity calls are given as the source filed them. The calls are words filed in the database; no cut-off is given here.

Experiment [1] concerns the target Glyceraldehyde-3-phosphate dehydrogenase (Oryctolagus cuniculus) (UniProt P46406). Nature of the experiment: Binding affinity to rabbit muscle GAPDH peptide V232 to R245 assessed as formation of S-nitrosated peptide by LC-MS analysis.
For experiment [2] the target is unchanged. The experiment is described as follows: Binding affinity to rabbit muscle GAPDH tryptic peptide I143 to K159 assessed as formation of disulfide bond by LC-MS analysis. The method, boiled down:
(§1)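 GAPDH from rabbit muscle, untreated or donor-treated, digested with trypsin (monomer:trypsin 20:1 w/w) in 50 mM Tris-HCl, 37 °C, 12−16 h; quenched by freezing. 10 μM digest in 1:1 2% formic acid/methanol run by LC-MS on a high-resolution Orbitrap in positive ion mode; tryptic peptides identified by m/z.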

Experiment [3] has the same target. The experiment is described as follows: Inhibition of rabbit muscle GAPDH assessed as residual enzyme activity after 60 mins by spectrophotometry. An outline of the steps: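 Rabbit muscle GAPDH incubated with donor (0.1, 0.5, 1, 5, 10, 100 μM) in 0.1 M sodium phosphate pH 7.4, 25 °C, 60 min. NAD+ and glyceraldehyde-3-phosphate then added in a sealed cuvette; NADH formation followed at 340 nm every minute for 30 min. Runs typically in triplicate, mean ± SE; IC50 from sigmoidal fit of percent-of-control activity.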

The target is the same in experiment [4]. Nature of the experiment: Binding affinity to rabbit muscle GAPDH assessed as structural modifications of Cys149, Cys153 and Cys244 at 5 mM after 60 mins by MALDI-TOF MS.
For experiment [5] the target is unchanged. The experiment is described as follows: Binding affinity to rabbit muscle GAPDH peptide V232 to R245 assessed as formation of mixture of sulfinamide and sulfinic acid by LC-MS analysis. The method, boiled down:
as §1

The target is the same in experiment [6]. The experiment is described as follows: Binding affinity to rabbit muscle GAPDH assessed as structural modifications at 5 mM after 60 mins by SDS-PAGE.

`N[C@@H](CCC(=O)N[C@@H](CSN=O)C(=O)NCC(=O)O)C(=O)O`: the result in experiment [1] was Active.
As for `O=NC1(OC(=O)C(F)(F)F)CCCCC1` [1-NITROSOCYCLOHEXYL TRIFLUOROACETATE], the outcome in experiment [2], in experiment [4] and in experiment [5] was Active. The inhibition entry in experiment [3] was “Dose-dependent effect”. The result in experiment [6] was inactive.
